The numbers were not newly measured in article PMC6013267 (Medicinal chemistry research : an international journal for …, 2018), which cites them from elsewhere.

This data set deals with amyloid β. The note with it: ref Salloway et al. 2014, Doody et al. 2014, Siemers et al. 2016, cited from earlier work.

Consider “Bapineuzumab: Anti-amyloid β monoclonal antibody”, for which the “Aβ plaque load (measured by PET imaging) before and after antibody treatment” value was “did not change significantly”. Further, the clinical outcome (mild to moderate AD) is recorded as “Did not improve clinical outcomes”.
